Source: patent EP4840863A1, “FLUORINE-CONTAINING PARTHENOLIDE DERIVATIVE, PREPARATION METHOD THEREFOR AND USE THEREOF” (dated 2026)
Values joined by “and” are separate entries in the source; they are usually repeats but may differ in a detail not shown here. Identical values can stand only once.

Tests used:
H520 = assay: Anticancer activity test (CCK-8), H520 cells; details: 72 h, Table 1-1
Experimental: (§1) Cells in logarithmic growth phase were digested, centrifuged, and counted; the cell suspension was adjusted to a concentration of 1500-3500 cells/well, and 95 µL was seeded into each well of a 96-well plate.
(§2) After continued overnight culture, drugs at different concentrations were added to the plate, with six replicate wells for each concentration. 10 µL of the drug was added to each well, followed by incubation for 72 h. Then, 10 µL of CCK-8 solution was added to each well (care should be taken to avoid generating bubbles in the wells, as they can affect the OD reading). After incubation in the incubator for 1-4 h, the OD value at 450 nm was measured using a microplate reader. The experiment to assess the effect of each drug on each cell line at different time points was repeated three times.
(§3) Data were processed using EXCEL software to calculate the inhibition rate at different concentrations, and SPSS was used to fit the IC50 value. EXCEL was used to calculate the mean and standard deviation of the three IC50 values. Inhibition rate % = {1 - (OD value of drug well - OD value of blank well) / (OD value of control well - OD value of blank well) } * 100%. Table 1-1 Activity of Compounds in Inhibiting Cancer Cells

[1] = Pharmacokinetic study of Compound 4: plasma concentrations (LC/MS); details: for AUC0-t: Plasma
Experimental: (1) Forty-eight healthy Bar b/c mice, each weighing approximately 20 g, were taken and divided into 3 groups. Blank control group (6 mice), oral gavage administration group (Compound 4 dose: 50 mg/kg, 21 mice), and tail vein injection administration group (Compound 4 dose: 10 mg/kg, 21 mice) (2) For the oral gavage group, blood samples were collected at 5 min, 15 min, 30 min, 1 h, 3 h, 8 h, and 24 h after administration. For the intravenous injection group, blood samples were collected at 2 min, 5 min, 15 min, 30 min, 1 h, 3 h, 8 h, and 24 h after administration. Blood was collected from mice via eyeball removal and placed in anticoagulant tubes containing sodium heparin. The samples were immediately centrifuged at 5000 rpm at low temperature (4°C) for 10 min to obtain plasma samples. The samples were stored in a -80°C freezer for analysis. Three mice were used per time point. (3) The mouse was fixed on a foam board. The skin on the chest was lifted with forceps, and the thoracic skin and ribs were cut open with scissors to expose the heart and liver. The auricle was then cut open. A syringe needle was inserted into the left ventricle of the mouse, and normal saline was perfused for approximately 1 min (10-20 mL) until the mouse's limbs, liver, and tongue turned pale. Brain collection: The skin on the head was cut open to expose the white skull. The cartilage was cut, the skull cap was carefully pried open to expose the white brain, and the entire brain was dissected out. Tissues such as the pancreas, liver, lung, and rectum were also collected. The samples were stored in a -80°C freezer for analysis. (4) The contents of Compound 4 and Compound 1 in peripheral blood and tissues were detected by LC/MS. MS/MS information

Huh-7 = assay: Anticancer activity test (CCK-8), Huh-7 cells; details: 72 h, Table 1-1
Experimental: as §1, §2, §3

U-118 = assay: Anticancer activity test (CCK-8), U-118 cells; details: 72 h, Table 1-1
Experimental: as §1, §2, §3

PANC-1 Cells = assay: Anticancer activity test (CCK-8), PANC-1 cells; details: 72 h, Table 1-1
Experimental: as §1, §2, §3

[2] = Release of Compound 4 in buffer solution (HPLC); details: 0.01 M HEPES buffer solution (pH=7.4), 37°C, 0-4 h
Experimental: Compound 4 was taken and prepared into a test solution of approximately 10 µg/mL using a 0.01 M HEPES buffer solution (pH=7.4). The solution was placed in a 37°C water bath for incubation. At 0 h, 0.5 h, 1 h, 2 h, and 4 h, an appropriate amount of Compound 4 was taken out. The concentrations of Compound 4 and its degradation products were analyzed by HPLC to investigate the release rate of Compound 4.

[3] = iv (10 mg/kg) Compound 4, 2 min, Mean
[4] = iv (10 mg/kg) Compound 4, 2 min, individual mice, 10 mg/kg
[5] = iv (10 mg/kg) Compound 4, 5min, Mean
[6] = iv (10 mg/kg) Compound 4, 5min, individual mice, 10 mg/kg
[7] = iv (10 mg/kg) Compound 4, 15min, Mean
[8] = iv (10 mg/kg) Compound 4, 15min, individual mice, 10 mg/kg
[9] = iv (10 mg/kg) Compound 4, 30min, Mean
[10] = iv (10 mg/kg) Compound 4, 30min, individual mice, 10 mg/kg
[11] = iv (10 mg/kg) Compound 4, 1h, Mean
[12] = iv (10 mg/kg) Compound 4, 1h, individual mice, 10 mg/kg
[13] = iv (10 mg/kg) Compound 4, 3h, Mean
[14] = po (50 mg/kg) Compound 4, 5min, Mean
[15] = po (50 mg/kg) Compound 4, 5min, individual mice, 50 mg/kg
[16] = po (50 mg/kg) Compound 4, 15min, Mean
[17] = po (50 mg/kg) Compound 4, 15min, individual mice, 50 mg/kg
[18] = po (50 mg/kg) Compound 4, 30min, Mean
[19] = po (50 mg/kg) Compound 4, 30min, individual mice, 50 mg/kg
[20] = po (50 mg/kg) Compound 4, 1h, Mean
[21] = po (50 mg/kg) Compound 4, 1h, individual mice, 50 mg/kg
[22] = po (50 mg/kg) Compound 4, 3h, Mean
[23] = po (50 mg/kg) Compound 4, 8h, Mean

In the case of C=C1C(=O)OC2C1CCC(CC(F)(F)F)=CCCC1(C)OC21 (centres unmarked), the IC50 (H520) is reported as 1.79 µM, the AUC0-t ([1]; iv (10mg/kg) Compound 4) is reported as 53 ng·h/mL and the AUC0-t ([1]; po (50 mg/kg) Compound 4) is reported as 241 ng·h/mL. The “Plasma Concentrations of the Released Active Substance Compound 1” value (from here on “Plasma Concentrations”) [1, 3] was 104 ng/mL, the “Plasma Concentrations” value [1, 4] was 108 ng/mL and 103 ng/mL and 99.8 ng/mL and the “Plasma Concentrations” value [1, 5] was 103 ng/mL. For the same compound, the “Plasma Concentrations” value [1, 6] was 74.1 ng/mL and 68.2 ng/mL and 168 ng/mL, the “Plasma Concentrations” value [1, 7] was 39.0 ng/mL and the “Plasma Concentrations” value [1, 8] was 36.1 ng/mL and 42.0 ng/mL and 38.8 ng/mL. The “Plasma Concentrations” value [1, 9] was 18.5 ng/mL, the “Plasma Concentrations” value [1, 10] was 16.8 ng/mL and 21.1 ng/mL and 17.6 ng/mL and the “Plasma Concentrations” value [1, 11] was 13.6 ng/mL. For the same compound, the “Plasma Concentrations” value [1, 12] was 11.7 ng/mL and 12.5 ng/mL and 16.7 ng/mL, the “Plasma Concentrations” value [1, 13] was 3.87 ng/mL and the “Plasma Concentrations” value ([1]; iv (10 mg/kg) Compound 4, 3h, individual mice, 10 mg/kg) was 6.48 ng/mL. For the same compound, the “Plasma Concentrations” value ([1]; iv (10 mg/kg) Compound 4, 24h, individual mice) was “BLOQ”, the “Plasma Concentrations” value [1, 14] was 101 ng/mL and the “Plasma Concentrations” value [1, 15] was 89.6 ng/mL and 80 ng/mL and 133 ng/mL. The “Plasma Concentrations” value [1, 16] was 156 ng/mL, the “Plasma Concentrations” value [1, 17] was 177 ng/mL and 148 ng/mL and 143 ng/mL and the “Plasma Concentrations” value [1, 18] was 124 ng/mL. The “Plasma Concentrations” value [1, 19] was 102 ng/mL and 116 ng/mL and 154 ng/mL, the “Plasma Concentrations” value [1, 20] was 52.7 ng/mL and the “Plasma Concentrations” value [1, 21] was 65.1 ng/mL and 52.4 ng/mL and 40.6 ng/mL. The “Plasma Concentrations” value [1, 22] was 21.7 ng/mL, the “Plasma Concentrations” value ([1]; po (50 mg/kg) Compound 4, 3h, individual mice, 50 mg/kg) was 24.0 ng/mL and 21.7 ng/mL and 19.4 ng/mL and the “Plasma Concentrations” value [1, 23] was 3.16 ng/mL. The “Plasma Concentrations” value ([1]; po (50 mg/kg) Compound 4, 24h, individual mice) was “BLOQ”, the IC50 (Huh-7) was 1.89 µM and the IC50 (U-118) was 1.82 µM. The IC50 (PANC-1 Cells) was 2.26 µM.
CN(C)CC1C(=O)OC2C1CCC(CC(F)(F)F)=CCCC1(C)OC21 (centres unmarked) [Compound 4] showed an IC50 (H520) of 3.84 µM, an AUC0-t ([1]; iv (10mg/kg) Compound 4) of 438 ng·h/mL and an AUC0-t ([1]; po (50 mg/kg) Compound 4) of 991 ng·h/mL. The “Blood Concentrations” value [1, 3] was 1273 ng/mL, the “Blood Concentrations” value [1, 4] was 1200 ng/mL and 1270 ng/mL and 1350 ng/mL and the “Blood Concentrations” value [1, 5] was 1045 ng/mL. The “Blood Concentrations” value [1, 6] was 866 ng/mL and 889 ng/mL and 1380 ng/mL, the “Blood Concentrations” value [1, 7] was 389 ng/mL and the “Blood Concentrations” value [1, 8] was 369 ng/mL and 366 ng/mL and 431 ng/mL. The “Blood Concentrations” value [1, 9] was 198 ng/mL, the “Blood Concentrations” value [1, 10] was 187 ng/mL and 212 ng/mL and 194 ng/mL and the “Blood Concentrations” value [1, 11] was 68 ng/mL. For the same compound, the “Blood Concentrations” value [1, 12] was 56.2 ng/mL and 48.2 ng/mL and 100 ng/mL, the “Blood Concentrations” value [1, 13] was 7 ng/mL and the “Blood Concentrations” value [1, 14] was 1061.0 ng/mL. The “Blood Concentrations” value [1, 15] was 773 ng/mL and 1040 ng/mL and 1370 ng/mL, the “Blood Concentrations” value [1, 16] was 1083.3 ng/mL and the “Blood Concentrations” value [1, 17] was 1240 ng/mL and 1070 ng/mL and 940 ng/mL. The “Blood Concentrations” value [1, 18] was 815.3 ng/mL, the “Blood Concentrations” value [1, 19] was 757 ng/mL and 609 ng/mL and 1080 ng/mL and the “Blood Concentrations” value [1, 20] was 153.3 ng/mL. For the same compound, the “Blood Concentrations” value [1, 21] was 254 ng/mL and 105 ng/mL and 101 ng/mL, the “Blood Concentrations” value [1, 22] was 38.3 ng/mL and the “Blood Concentrations” value [1, 23] was 0.4 ng/mL. The IC50 (Huh-7) was 5.26 µM, the “Release of Compound 4 in buffer solution” value [2] was “can slowly release the active substance, Compound 1” and the IC50 (U-118) was 3.93 µM. It also gave an IC50 (PANC-1 Cells) of 6.54 µM.
